Assay results reported in patent publication US20240360177A1, “PEPTIDES WITH ANTIMICROBIAL ACTIVITIES” (priority 2021, published 2024).

Tests used:
human red blood cells = assay type: cell-based; conditions: PBS, 37° C., 1 hr
Method: Hemolysis is a liability for many other cationic peptides which prevented their utility to treat systemic infections. The hemolytic potential of the peptides was tested using red blood cells collected from fresh human blood after centrifugation at room temperature and washed in phosphate buffered saline (pH 7.4) three times and then incubated in phosphate buffered saline (PBS) at 37° C. for 1 hr with the peptides at concentrations of 3-300 μg/mL. Triton-X100 was used as the positive control while the vehicle (PBS) was used as the negative control. Amphotericin B and melittin, both known to be hemolytic were used as reference compounds. Following incubation, the mixture was centrifuged at room temperature, and the supernatant was separated and analyzed for light absorbance at a single wavelength of 410 nm. The background absorbance reading from the negative control was subtracted from all samples. The Triton-X-100 sample was used to represent 100% lysis. All test compound and positive control samples were normalized to this value to determine the percent lysis caused by the test compounds and the positive controls at each concentration. EC50 value (the concentration of test article that produced a 50% lysis) was determined where possible for each test compound.

[1] = Cytotoxicity in HepG2 cells, intracellular ATP assay; conditions: human

With `CC[C@H](C)[C@H](NC(=O)CN)C(=O)NCC(=O)N[C@@H](C)C(=O)N[C@H](C(=O)N[C@@H](CC(C)C)C(=O)N[C@@H](CCCCN)C(=O)N[C@H](C(=O)N[C@@H](CC(C)C)C(=O)N[C@H](C(=O)N[C@H](C(=O)NCC(=O)N[C@@H](CC(C)C)C(=O)N1CCC[C@H]1C(=O)N[C@@H](C)C(=O)N[C@@H](CC(C)C)C(=O)N[C@H](C(=O)N[C@@H](CO)C(=O)N[C@@H](Cc1c[nH]c2ccccc12)C(=O)N[C@H](C(=O)N[C@@H](CCCCN)C(=O)N[C@@H](CCCNC(=N)N)C(=O)N[C@@H](CCCCN)C(=O)N[C@@H](CCCNC(=N)N)C(=O)N[C@@H](CCC(N)=O)C(=O)N[C@@H](CCC(N)=O)C(N)=O)[C@@H](C)CC)[C@@H](C)CC)[C@@H](C)O)[C@@H](C)O)C(C)C)C(C)C` [Melittin] the “EC50 hemolysis (50% lysis)” value (human red blood cells) was 2.63 µg/mL (≈ 0.924 µM), the EC50 ([1]; EC50 cytotoxicity in HepG2, positive controls across studies, range across studies) was 2.01 to 3.07 µg/mL (≈ 0.706 to 1.08 µM) and the EC50 ([1]; EC50 cytotoxicity in HepG2 cells (50% cell viability), Table 9, 18-22 hrs exposure without FBS) was 2.01 µg/mL (≈ 0.708 µM).

≈ marks a conversion by molar mass, not a printed value.
